{"source": "patent US6544542B1", "about": "“Fat emulsions for inhalational administration” (Nippon Shinyaku Co., Ltd., priority 1998, dated 2003)", "experiment": "Test Example 7: influence of the solubilization-effective surfactant concentration on nebulizer sprayability", "assay_type": "physicochemical", "data": [{"substance": "Triton X100", "values": [{"measurement": "nebulizer sprayability, Dexamethasone palmitate", "value": "Infeasible"}]}]}
